Test: Inhibition of Escherichia coli thymidylate synthase using dUMP/(6R,S)-tetrahydrofolate as substrate/co-factor by spectrophotometric method

IC50: 5.7 µM
Structure (SMILES): Cc1nc(=O)c2cc(CN(C)c3ccc(C(=O)N[C@@H](CCC(=O)O)C(=O)O)s3)ccc2[nH]1 [RALTITREXED]
